Molecular target: CDK2 (Homo sapiens, UniProt P24941)
Assay: CDK2 degradation in MKN1 cells (AlphaLISA)
Description: Degradation of CDK2 in MKN1 cells was measured using AlphaLISA technology (PerkinElmer ALSU-TCDK2-A10K). MKN1 cells were maintained in RPMI1640 medium containing 10% FBS+1× penn/strep. Cells were seeded in 96-well plates (Corning 3599) at a density of 2e4 cells per well in 80 μL of fresh complete growth medium. Cells were incubated overnight at 37° C., 5% CO2. Compounds were then added to the cell assay plates with a final top concentration of 10 μM in a 1:5 dilution series with a total of 11 doses (0.001 nM-10 μM). The final volume per well was 160 μL and the final DMSO concentration was 0.1%. Additionally, wells containing no cells and only complete growth medium were also maintained on the cell assay plates (‘no cell’ wells) and processed along with experimental wells. After 14 hour-incubation at 37° C., 5% CO2, the medium was removed and the cells were washed once with 100 μL of 1×PBS. Following removal of PBS, 40 μL of 1× Lysis Buffer containing 1× protease and phosphatase inhibitors (Roche 4693116001; Roche 4906837001) were added to each well. […] Under subdued light, the plates were analyzed on an EnVision Microplate Reader (PerkinElmer Model 2009-0030). […] The data were analyzed using Xlfit (v5.3. 1.3) and the dose-dependent CDK2 degradation data were fit using a four-parameter logistic model to calculate DC50.

In the case of `Cc1cc(S(=O)(=O)NC2CC(CN3CCN(c4ccc(C5CCC(=O)NC5=O)c(Cl)c4)CC3)C2)ccc1Nc1ncc(C(F)(F)F)c(N2CCCC(C)(O)C2)n1` (single isomer, unassigned), the “CDK2 degradation 14 h: Average Dmax %” value (14 h incubation) is reported as “A (A (>75% o))” and the DC50 (read-out: CDK2 degradation 14 h: Mean external-Abs DC50, 14 h incubation) is reported as less than 100 nM.
